For assay [1], the system named is cumulus expansion of oocytectomised (OOX) complexes. The assay is described as follows: FSH-induced cumulus expansion score of OOX complexes. It counts as cell-based, mice. Conditions: score 0 (no expansion) to +4 (maximum expansion); mean ±SEM; OOX complexes with FSH. The procedure: Members of the TGF-β superfamily are prime candidates for the mouse cumulus expansion-enabling factor (CEEF). This study was conducted to examine TGF-β superfamily processes regulating cumulus expansion. COCs were collected from eGG-primed mice and the oocyte microsurgically removed to generate oocytectomised (OOX) complexes. An established scoring system was used to measure FSH-induced cumulus expansion; 0 (no expansion) to +4 (maximum expansion). […] The type-I receptors for GDF9 and […] are ALK5 and ALK4, respectively. We tested the ability of an ALK4/5/7 kinase inhibitor to neutralize cumulus expansion.

The subject of a further assay is cumulus cells. The assay is described as follows: Cumulus cell apoptosis in oocytectomized complexes (OOX) and COC, TUNEL with confocal microscopy. In kind it is cell-based, Bovine. Conditions: media supplemented with FSH (0.1 IU/ml), 24 h. The procedure:
Bovine ovaries were collected from local abattoir and transported to the laboratory in warm saline (30-35° C.). Cumulus-oocyte complexes (COC) were aspirated from antral follicles (2- to 8-mm diameter) using an 18-gauge needle and a 10-ml syringe containing ˜2 ml aspiration media (Hepes-buffered Tissue Cultured Medium-199: TCM-199, ICN Biochemicals, Irvine, Calif., USA) supplemented with 50 μg/ml kanamycin (Sigma-Aldrish, St. louis, Mo.), 4 mg/ml fatty acid-free bovine serum albumin (FAF-BSA) (ICPbio ltd, Auckland, NZ). […]
CC apoptoic DNA was detected using TUNEl (Roche Diagnostic, Penzberg, Germany) according to the manufacturer's instructions. […]
Apoptosis in COC and OOX was visualised and quantified using confocal microscopy. Dual fluorescence emission from CC was detected using a Nikon C1 Confocal Scanning Head and a Nikon TE2000E microscope (Nikon, Tokyo, Japan). […]
In order to generate an accurate representation of the overall apoptotic incidence for all complexes, the depth of each complex was measured through a Z series to divide the construct into three percentiles (optical Z plane sections) at 25%, 50% and 75%. These optical section images were acquired and saved as independent colour channels (green, apoptotic cumulus fluorescence and red, nuclear cumulus fluorescence). […]

Turning to “FSH: Follicle stimulating hormone (Organon), 0.1 IU/ml [reference compound]”, in assay [1], the cumulus expansion score was 0. Further, the “decrease in incidence of cumulus cell apoptosis in COCs” value with cumulus cells (COC without FSH 9%) is 6%. The “decrease in incidence of cumulus cell apoptosis in OOXs” value with cumulus cells (OOX without FSH 35%) came out at 10%.
